SMILES strings stand for the structures. This is a selection; strong and weak results do not stand in their true shares. Some salts and complexes are drawn in separate pieces, as the source files them; their charges need not balance. Activity calls are given as the source filed them. Calls follow the shape of the dose curve; as a rule, active = well fitted inhibition curve with a large enough effect; inconclusive = small, poorly fitted or top-dose-only effect; inactive = no such curve, though single readings can be large or run the other way.
% is scaled to controls: 0 for no effect and ±100 for the full control effect.

Protein sequences, listed by entry. Tags and fused reporters are not part of them.
UniProt Q8WZA2, whole entry: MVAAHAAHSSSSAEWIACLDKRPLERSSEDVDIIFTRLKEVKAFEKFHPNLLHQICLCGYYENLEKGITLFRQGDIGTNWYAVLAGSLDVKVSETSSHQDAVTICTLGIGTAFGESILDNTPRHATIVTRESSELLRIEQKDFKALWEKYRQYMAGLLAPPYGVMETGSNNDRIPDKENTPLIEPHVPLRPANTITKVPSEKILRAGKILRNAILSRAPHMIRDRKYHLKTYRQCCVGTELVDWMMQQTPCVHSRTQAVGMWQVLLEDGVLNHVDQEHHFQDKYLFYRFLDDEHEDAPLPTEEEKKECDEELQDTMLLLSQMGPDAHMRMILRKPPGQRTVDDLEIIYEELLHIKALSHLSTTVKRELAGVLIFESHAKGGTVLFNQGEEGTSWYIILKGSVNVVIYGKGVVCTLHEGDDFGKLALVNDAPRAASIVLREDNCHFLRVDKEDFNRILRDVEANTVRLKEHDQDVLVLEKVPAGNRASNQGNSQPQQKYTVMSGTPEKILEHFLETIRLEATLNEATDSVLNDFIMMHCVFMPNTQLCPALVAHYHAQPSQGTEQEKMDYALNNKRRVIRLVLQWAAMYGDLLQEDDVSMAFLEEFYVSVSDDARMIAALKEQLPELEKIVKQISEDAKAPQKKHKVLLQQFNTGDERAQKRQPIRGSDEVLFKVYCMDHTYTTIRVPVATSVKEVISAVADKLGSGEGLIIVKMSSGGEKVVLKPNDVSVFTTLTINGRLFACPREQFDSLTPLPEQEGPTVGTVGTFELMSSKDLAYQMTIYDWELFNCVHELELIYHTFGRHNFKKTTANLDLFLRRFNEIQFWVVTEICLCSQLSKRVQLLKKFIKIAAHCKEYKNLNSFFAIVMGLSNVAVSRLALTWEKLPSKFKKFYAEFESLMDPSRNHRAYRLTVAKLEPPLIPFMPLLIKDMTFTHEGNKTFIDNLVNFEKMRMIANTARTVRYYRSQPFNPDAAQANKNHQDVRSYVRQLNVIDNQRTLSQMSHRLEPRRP

The experiment concerns the target Rap guanine nucleotide exchange factor 4 (Homo sapiens) (UniProt Q8WZA2). As to the kind of experiment: qHTS for Antagonist of cAMP-regulated guanine nucleotide exchange factor 2 (EPAC2): primary screen. Also: nearly all actives have a fitted effect of over 45% in size. The conditions noted are these: EPAC2 GEF exchange of Rap1B-BODIPY-GDP, fluorescence; at 114 µM (top of the series) unless noted. The text has this:
In multi-cellular eukaryotic organisms, the effects of cAMP are transduced by two ubiquitously-expressed intracellular cAMP receptors, the classic protein kinase A/cAMP-dependent protein kinase (PKA/cAPK) and the more recently discovered exchange protein directly activated by cAMP/cAMP-regulated guanine nucleotide exchange factor (EPAC/cAMP-GEF). Both PKA and EPAC are ubiquitously expressed in all tissues, and an increase in intracellular cAMP levels will lead to the activation of both PKA and EPAC. Therefore, careful dissections of the individual role and relative contribution of EPAC and PKA within the overall cAMP signaling in various model systems are critical for further elucidating the mechanism of cAMP signaling. To date no EPAC-specific antagonists and agonist, as well as isoform-specific agonists have been reported, and developing EPAC-specific pharmacological probes to determine the physiological functions that EPAC play in the overall cAMP-mediated signaling remains a major challenge within the research field. Furthermore, identified regulators of EPAC may lead to new mechanism-based therapeutic strategies specifically targeting the EPAC / cAMP-signaling components as EPAC has been implicated to play important roles in major human pathological conditions such as diabetes, heart disease, and cancer.
This qHTS will be used to screen the Molecular Libraries Small Molecule Repository (MLSMR) as a concentration-titration series using the NCGC unique quantitative screening (qHTS) platform to find inhibitors for EPAC2. In addition, this assay will also be used as a counterscreen for the EPAC1 qHTS. This fluorescent based assay is developed and validated for EPAC2 that measures exchange using EPAC effector Rap1 complex with BODIPY-GDP, a GDP analog with a tethered fluorophores. Inhibitors are identified by monitoring the change in fluorescence signal as the exchanged free BODIPY-GDP has a reduced fluorescence compared to Rap1-bound BODIPY-GDP. Decrease in signal (inhibition) is the desired outcome for the EPAC2 antagonist while no activity in this assay is desired for the EPAC1 antagonist counterscreen.
NIH Chemical Genomics Center [NCGC]
NIH Molecular Libraries Probe Centers Network [MLPCN]
Assay Submitter (PI): Xiaodong Cheng, The University of Texas, Medical Branch
Briefly, three uL of reagents (100 nM EPAC2, 250 nM RAP1B-BODIPY-GDP, 50 uM GDP) were dispensed into a 1536-well Greiner black solid-bottom medium binding assay plate. Controls and test compounds (23 nL) were transferred to the plate via a Kalypsys pin tool equipped with a 1536-pin array. The plates were centrifuged at 1,000 rpm for 15 seconds followed by 5 minute incubation at room temperature. The assay plates were read at 5 minute intervals for 30 minutes in the ViewLux plate reader using 480nm excitation and 540nm emission filters. The results were normalized to the agonist positive control ATA and DMSO.
On to `CN1CCC(Nc2cccc(F)c2)CC1`, for which the activity, negative = inhibition was inactive: 11%.

As for `COc1ccc2c(c1O)-c1c(O)c(OC)cc3c1[C@H](C2)[N+](C)(C)CC3.O=[N+]([O-])c1cc([N+](=O)[O-])c([O-])c([N+](=O)[O-])c1[O-]`, the activity, negative = inhibition is inactive: -2.95%.

With `O=C(NCC1(N2CCCCC2)CCCCC1)c1cncc(Br)c1`, the activity, negative = inhibition is inactive: 6.17%.

On to `O=C(OC1CN2CCC1CC2)c1ccc([N+](=O)[O-])cc1` (stereo unspecified), for which the activity, negative = inhibition was inactive: 3.64%.

For the compound `Cc1ccc(C(=O)NCC2(N(C)C)CCCCC2)o1`, the activity, negative = inhibition was inactive: -15.3%.

As to `CCCOc1ccc(C(=O)NCC2(N(C)C)CCCCC2)cc1OC`, the activity, negative = inhibition is inactive: 1.7%.

On to `O=[N+]([O-])c1cc([N+](=O)[O-])c(Nc2ccc(Cl)cc2)c([N+](=O)[O-])c1`, for which the activity, negative = inhibition is inactive: -29%.

For the compound `COc1ccc(C(c2nnnn2C2CCCC2)N2CCC(n3c(=O)[nH]c4ccccc43)CC2)cc1` (stereo unspecified), the activity, negative = inhibition was inactive: -4.41%.

`COc1ccc(CN(CCCl)CCCl)cc1Cl`: the activity, negative = inhibition was inactive: -7.49%.

Regarding `O=[N+]([O-])c1cc([N+](=O)[O-])c(OC2CCCCC2O)c([N+](=O)[O-])c1` (stereo unspecified), the activity, negative = inhibition is inactive: -4.19%.

As for `CN(C)c1cccc(C(=O)NCC2(N3CCCCC3)CCCCC2)c1`, the activity, negative = inhibition is inactive: 12.1%.

Take `CCCCn1nnnc1C(c1ccccc1OC(F)(F)F)N1CCC(n2c(=O)[nH]c3ccccc32)CC1` (stereo unspecified): the activity, negative = inhibition is inactive: -24%.

On to `CC(C)c1ccc(NC2CCN(C(=O)OC(C)(C)C)CC2)cc1`, for which the activity, negative = inhibition was inactive: -14.6%.

Regarding `CCCCn1nnnc1C(c1ccnc2ccccc12)N1CCC(n2c(=O)[nH]c3ccccc32)CC1` (stereo unspecified), the activity, negative = inhibition was inactive: -0.422%.

For the compound `COc1cc(OC)c(C(=O)NCC2(N(C)C)CCCCC2)cc1OC`, the activity, negative = inhibition is inactive: -2.51%.

For the compound `O=C(NCC1(N2CCOCC2)CCCCC1)c1cc(F)c(F)cc1Cl`, the activity, negative = inhibition is inactive: 2.05%.

Regarding `CCN(CC)CCCNc1ccccc1[N+](=O)[O-].O=[N+]([O-])c1cc([N+](=O)[O-])c(O)c([N+](=O)[O-])c1`, the activity, negative = inhibition is inactive: -16%.

Turning to `O=C(NCC1(N2CCCCC2)CCCCC1)c1cccc(C(F)(F)F)c1`, the activity, negative = inhibition is inactive: -3.98%.

In the case of `O=[N+]([O-])c1cc([N+](=O)[O-])c(NCC2CCS(=O)(=O)C2)c([N+](=O)[O-])c1` (stereo unspecified), the activity, negative = inhibition was inactive: 11.3%.

With `CN1CCN(CCOC(=O)C(O)(c2ccccc2)c2ccccc2)CC1`, the activity, negative = inhibition is inactive: -1.82%.

For `CC(C)c1ccc(C(=O)NCC2(N3CCOCC3)CCCCC2)cc1`, the activity, negative = inhibition was inactive: 10.5%.

For the compound `COc1ccc(NC2CCN(C(=O)OC(C)(C)C)CC2)cc1`, the activity, negative = inhibition is inactive: 0.61%.

For `CCCCn1nnnc1C(c1cccc2ccccc12)N1CCC(n2c(=O)[nH]c3ccccc32)CC1` (stereo unspecified), the activity, negative = inhibition was inactive: -11.8%.

For `COc1cc(C(=O)NCC2(N3CCCCC3)CCCCC2)ccc1OC(F)F`, the activity, negative = inhibition is inactive: -2.38%.

For `O=C(NCC1(N2CCOCC2)CCCCC1)c1cc(=O)[nH]c2ccccc12`, the activity, negative = inhibition is inactive: 1.83%.

In the case of `O=C(NCC1(N2CCCCC2)CCCCC1)c1ccc(OC(F)F)cc1`, the activity, negative = inhibition is inactive: 3.07%.

For the compound `O=C(NCC1(N2CCCCC2)CCCCC1)c1cccc([N+](=O)[O-])c1`, the activity, negative = inhibition was inactive: 4.56%.

In the case of `CSc1ccc(C(=O)NCC2(N3CCOCC3)CCCCC2)cc1`, the activity, negative = inhibition is inactive: 5.66%.

As to `CCN1CCC(Nc2ccc(Cl)cc2)CC1`, the activity, negative = inhibition was inactive: -9.07%.

With `N#CC1(Nc2ccccc2)CCN(CCc2ccccc2)CC1`, the activity, negative = inhibition was inactive: -1.38%.

Regarding `O=c1[nH]c2ccccc2n1C1CCN(C(c2ccccc2)c2nnnn2C2CCCCC2)CC1` (stereo unspecified), the activity, negative = inhibition is inactive: -4.83%.

Regarding `O=c1[nH]c2ccccc2n1C1CCN(C(c2cccc3ccccc23)c2nnnn2C2CCCC2)CC1` (stereo unspecified), the activity, negative = inhibition was inactive: -16.4%.

Take `CCOC(=O)N1CCC(Nc2cccc(C)c2)CC1`: the activity, negative = inhibition was inactive: -2.47%.

As for `COc1cc(C(=O)NCC2(N(C)C)CCCCC2)ccc1OC(F)F`, the activity, negative = inhibition was inactive: 3.64%.

Take `CCOc1ccc(C)cc1CN(CCCl)CCCl`: the activity, negative = inhibition was inactive: 4.31%.

`CC(C)(C)n1nnnc1C(c1ccccc1)N1CCC(n2c(=O)[nH]c3ccccc32)CC1` (stereo unspecified): the activity, negative = inhibition was inactive: 0.0323%.

As for `O=C1CCN(Cc2ccccc2)CC1`, the activity, negative = inhibition was inactive: 14.4%.

With `O=P1(N(CCCl)CCCl)SCCCS1`, the activity, negative = inhibition was inactive: 1.79%.

Consider `CCCCOc1ccc(C(=O)NCC2(N3CCOCC3)CCCCC2)cc1`, for which the activity, negative = inhibition is inactive: -6.65%.

Consider `O=C(NCC1(N2CCCCC2)CCCCC1)c1ccc(F)cc1`, for which the activity, negative = inhibition is inactive: 4.57%.

For `COc1ccc(NC2CCN(CCc3ccccc3)CC2)c(OC)c1`, the activity, negative = inhibition was inactive: -4.83%.

Turning to `CCOC(=O)N1CCC(Nc2ccc(F)cc2)CC1`, the activity, negative = inhibition is inactive: 0.142%.

Take `O=C(NCC1(N2CCOCC2)CCCCC1)c1cc2ccccc2o1`: the activity, negative = inhibition was inactive: -2.36%.

In the case of `O=C(NCC1(N2CCCCC2)CCCCC1)c1ccc(Cl)nc1`, the activity, negative = inhibition is inactive: 19.6%.

As for `O=c1[nH]c2ccccc2n1C1CCN(C(c2ccccc2OC(F)(F)F)c2nnnn2C2CCCCC2)CC1` (stereo unspecified), the activity, negative = inhibition is inactive: -19%.

Consider `Cc1cc(C)cc(N(C(=O)c2ccccc2)C2CCN(C(=O)OC(C)(C)C)CC2)c1`, for which the activity, negative = inhibition is inactive: -14.4%.

For the origin of these results see PubChem BioAssay AID720708 (National Center for Advancing Translational Sciences (NCATS), 2013).
